ChEMBL document CHEMBL4715860, “4-(Difluoromethyl)-5-(4-((3R,5S)-3,5-dimethylmorpholino)-6-((R)-3-methylmorpholino)-1,3,5-triazin-2-yl)pyridin-2-amine (PQR626), a Potent, Orally Available, and Brain-Penetrant mTOR Inhibitor for the Treatment of Neurological Disorders” (J Med Chem, 2020)

Experiment: Metabolic stability in human hepatocytes assessed as half-life at 5 uM incubated for 3 hrs by LC-MS analysis
Type: ADME, cell-based, Hepatocyte
Method in brief: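 Cryopreserved primary hepatocytes in suspension from CD-1 mouse, Sprague-Dawley rat, Beagle dog and human. Compound at 5 μM final (from 10 mM DMSO stock). Samples taken at 0, 15, 60, 90 and 180 min and quenched with ACN plus internal standard. Parent quantified by LC-MS. Hepatocyte-free medium incubations served as negative control; 7-ethoxycoumarin as positive control. Duplicate; CLint per 10^6 cells and t1/2.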

half-life at 5 µM: 2.73 h
Structure (SMILES): C[C@@H]1COCCN1c1nc(-c2cnc(N)cc2C(F)F)nc(N2[C@H](C)COC[C@@H]2C)n1
